# Laboratory results published in PubChem BioAssay AID1117263 (The Scripps Research Institute Molecular Screening Center, 2014).
# Sequences of proteins named here, by UniProt entry; tags and fusion partners are left off. A change or cut given only in a name is not applied to a line headed by its entry.
# UniProt Q9HAT2: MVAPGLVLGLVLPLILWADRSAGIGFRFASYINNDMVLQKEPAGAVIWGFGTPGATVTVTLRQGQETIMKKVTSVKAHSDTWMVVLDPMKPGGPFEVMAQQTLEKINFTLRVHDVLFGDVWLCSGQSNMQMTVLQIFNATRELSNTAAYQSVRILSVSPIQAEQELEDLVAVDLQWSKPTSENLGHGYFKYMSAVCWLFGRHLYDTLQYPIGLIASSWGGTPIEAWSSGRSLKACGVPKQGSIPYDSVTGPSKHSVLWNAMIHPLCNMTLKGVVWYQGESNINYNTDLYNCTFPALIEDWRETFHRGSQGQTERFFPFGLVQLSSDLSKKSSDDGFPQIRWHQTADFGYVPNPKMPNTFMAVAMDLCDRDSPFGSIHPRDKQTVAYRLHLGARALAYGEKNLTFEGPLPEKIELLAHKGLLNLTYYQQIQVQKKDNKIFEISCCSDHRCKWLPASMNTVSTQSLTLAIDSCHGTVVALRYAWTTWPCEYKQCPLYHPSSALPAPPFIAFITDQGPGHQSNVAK
# The list shows a part of the results, in another mix than the full data. Activity calls are given as the source filed them.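 Rule for the calls: active = mean inhibition of the replicates above the hit cutoff set in the primary screen (cut at about 17% in these data); inactive = the rest.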
# Target: Sialate O-acetylesterase (Homo sapiens) (UniProt Q9HAT2)
# Experiment: sialate O-acetylesterase blockers re-tested – biochemical, fluorescence polarization, FP-Rh probe, triplicate, confirmation (AID 1117263);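 note: 0% = SIAE with DMSO and probe and 100% = probe without SIAE; inhibitors lower polarization as more probe stays unbound to SIAE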
# Conditions: SIAE FP-Rh activity-based probe, at 9.66 µM, stronger effect = higher value
row,Structure (SMILES),inhibition
1,Nc1cccc2ccc([As](=O)(O)O)cc12,inactive: 0.87%
2,C[N+]1=C2C=CC=CC=C2SC12C([N+](=O)[O-])=CC([N+](=O)[O-])=C[C-]2[N+](=O)[O-] (stereo not given),inactive: 10.6%
3,O=[N+]([O-])c1cc([N+](=O)[O-])c(CCNc2ccccc2)c([N+](=O)[O-])c1,active: 27.2%
4,Nc1cccc2c([As](=O)(O)O)cccc12,inactive: 10.6%
5,Cc1ccc(NCCc2c([N+](=O)[O-])cc([N+](=O)[O-])cc2[N+](=O)[O-])cc1,inactive: 15.2%
